Literature values in patent US20090221522A1, “METHODS TO CORRECT GENE SET EXPRESSION PROFILES TO DRUG SENSITIVITY” (The Johns Hopkins University, priority 2008, published 2009).

Test system: Her2-positive breast cancer
Settings: Her2-positive breast cancer patients; cited from earlier work

## trastuzumab
  objective response: about 34%
